Reference: patent US12528818B2, “Compositions and methods for inhibition of RAS” (Leidos Biomedical Research, Inc., priority 2021, dated 2026)
pIC50: −log10 of the molar value.

Key:
[1] = target: GppNHp-loaded KRAS4b (amino acids 1-169) G12C/C118S protein (Homo sapiens, UniProt P01116, C118S/G12C); assay: Covalent cysteine 12 modification by MALDI-TOF MS, GppNHp-loaded KRAS G12C; format: biochemical; details: 15 minutes reaction time
[2] = target: GDP-loaded KRAS4b (amino acids 1-169) G12C/C118S protein (Homo sapiens, UniProt P01116, C118S/G12C); assay: Covalent cysteine 12 modification by MALDI-TOF MS, GDP-loaded KRAS G12C; format: biochemical; details: 15 minutes reaction time
[3] = target: Avi-KRAS G12C (1-169) GppNHp/RAF1 RBD-3xFLAG (52-151) (Homo sapiens, UniProt P01116, G12C); assay: biochemical; details: Raf1-GppNHp-KRAS G12C disruption, Raf1 RBD-KRAS G12C-GppNHp disruption assay IC50
[4] = compound 95 or later using 1 μM proteins
[5] = compounds 94 or before using 5 μM proteins

SMILES	GppNHp-KRAS G12C percent of modification [1, 4]	GDP-KRAS G12C percent of modification [2, 4]	pIC50 [3]	GppNHp-KRAS G12C percent of modification [1, 5]	GDP-KRAS G12C percent of modification [2, 5]
CC#CC(=O)N1CCN(c2nc(OCC34CCCN3CCC4)nc3c(F)c(-c4ccc(F)c5sc(N)nc45)c(-c4ccoc4)cc23)CC1 [Compound 127]	D (percent of modification <10%)	A (percent of modification ≥70%)	4.70 to 5.30	–	–
C=CC(=O)N1CC[C@@H]2[C@H]1CN2c1nc(OC[C@@H]2C[C@@H](F)CN2C)nc2c(F)c(-c3ccc(F)c4sc(N)nc34)c(C(F)(F)F)cc12 [Compound 138]	D (percent of modification <10%)	A (percent of modification ≥70%)	5.30 to 6.30	–	–
C=CC(=O)N1CCN(c2ncnc3c(F)c(-c4ccc(F)c5sc(N)nc45)c(Cl)cc23)CC1 [Compound 7]	–	–	< 4.70	D (percent of modification <10%)	A (percent of modification ≥70%)
C=CC(=O)N1CCN(c2nc(OCC34CCCN3CCC4)nc3c(F)c(-c4ccc(F)c5sc(N)nc45)c(-c4ccoc4)cc23)CC1 [Compound 119]	C (10%≤percent of modification <50%)	A (percent of modification ≥70%)	5.30 to 6.30	–	–
Nc1nc2c(-c3c(Cl)cc4c(N5CCC6(CC5)CN(C(=O)CCl)C6)ncnc4c3F)ccc(F)c2s1 [Compound 25]	–	–	< 4.70	D (percent of modification <10%)	A (percent of modification ≥70%)
CC(Cl)C(=O)N1CC(Nc2ncnc3c(F)c(-c4ccc(F)c5sc(N)nc45)c(Cl)cc23)C1 (stereo not drawn) [Compound 20, 1-[3-[[7-(2-amino-7-fluoro-1,3-benzothiazol-4-yl)-6-chloro-8-fluoro-quinazolin-4-yl]amino]azetidin-1-yl]-2-chloro-propan-1-one]	–	–	< 4.70	D (percent of modification <10%)	C (10%≤percent of modification <50%)
C=CC(=O)N1CCN(c2nc(OC[C@@H]3CCCN3C)nc3c(F)c(-c4ccc(F)c5sc(N)nc45)c(CC)cc23)CC1 [Compound 146]	D (percent of modification <10%)	A (percent of modification ≥70%)	5.30 to 6.30	–	–
CN1CCC[C@H]1COc1nc(NC2CCCN(C#N)C2)c2cc(Cl)c(-c3ccc(F)c4sc(N)nc34)c(F)c2n1 (stereo partly drawn) [Compound 53]	–	–	4.70 to 5.30	D (percent of modification <10%)	C (10%≤percent of modification <50%)

More lines, now with the values ahead:

GppNHp-KRAS G12C percent of modification [1, 4]	GDP-KRAS G12C percent of modification [2, 4]	pIC50 [3]	GppNHp-KRAS G12C percent of modification [1, 5]	GDP-KRAS G12C percent of modification [2, 5]	SMILES
D (percent of modification <10%)	C (10%≤percent of modification <50%)	< 4.70	–	–	C=CC(=O)N1CC[C@@H](N(C)c2c(C#N)c(OC[C@@]34CCCN3C[C@H](F)C4)nc3c(F)c(-c4ccc(F)c5sc(N)nc45)c(Cl)cc23)C1 (atropisomer, axis not shown) [Compound 234]
D (percent of modification <10%)	B (50≤percent of modification <70%)	5.30 to 6.30	–	–	C=C(F)C(=O)N1C[C@H](C)N(c2nc(OC[C@@]34CCCN3C[C@H](F)C4)nc3c(F)c(-c4ccc(F)c5sc(N)nc45)c(C(F)(F)F)cc23)C[C@H]1C [Compound 203]
D (percent of modification <10%)	B (50≤percent of modification <70%)	5.30 to 6.30	–	–	C=CC(=O)N1CCN(c2c(C#N)c(OC[C@@]34CCCN3C[C@H](F)C4)nc3c(F)c(-c4ccc(F)c5sc(N)nc45)c(Cl)cc23)CC1 [Compound 200]
–	–	> 6.30	A (percent of modification ≥70%)	A (percent of modification ≥70%)	C=CC(=O)N1CC(Nc2nc(OCC34CCCN3CCC4)nc3c(F)c(-c4ccc(F)c5sc(N)nc45)c(C(F)(F)F)cc23)C1 [Compound 79]
C (10%≤percent of modification <50%)	C (10%≤percent of modification <50%)	> 6.30	–	–	C=CC(=O)N1CC[C@@H](N(C)c2nc(OC[C@@]34CCCN3C[C@H](F)C4)nc3c(F)c(-c4ccc(F)c5sc(N)nc45)c(Cl)cc23)C1 [Compound 195, 1-((3R)-3-((7-(2-amino-7-fluorobenzo[d]thiazol-4-yl)-6-chloro-8-fluoro-2-(((2R,7aS)-2-fluorotetrahydro-1H-pyrrolizin-7a(5H)-yl)methoxy)quinazolin-4-yl)(methyl)amino)pyrrolidin-1-yl)prop-2-en-1-one]
D (percent of modification <10%)	A (percent of modification ≥70%)	4.70 to 5.30	–	–	C=C(F)C(=O)N1CCN(c2nc(OC[C@]34CCCN3C[C@H](F)C4)nc3c(F)c(-c4ccc(F)c5sc(N)nc45)c(C(F)(F)F)cc23)C[C@H]1C [Compound 191]
B (50≤percent of modification <70%)	A (percent of modification ≥70%)	> 6.30	–	–	C=CC(=O)N1CC(N(c2nc(OC[C@@H]3CCCN3C)nc3c(F)c(-c4ccc(F)c5sc(N)nc45)c(Cl)cc23)C2CC2)C1 [Compound 109]
C (10%≤percent of modification <50%)	A (percent of modification ≥70%)	> 6.30	–	–	C=CC(=O)N1CC[C@@H](N(C)c2nc(OC[C@@H]3CC(C)(C)CN3C)nc3c(F)c(-c4ccc(F)c5sc(N)nc45)c(C(F)(F)F)cc23)C1 [Compound 265]
A (percent of modification ≥70%)	A (percent of modification ≥70%)	> 6.30	–	–	C=CC(=O)N1CC[C@@H](N(CC)c2nc(OCC34CCCN3CCC4)nc3c(F)c(-c4ccc(F)c5sc(N)nc45)c(C(F)(F)F)cc23)C1 [Compound 249]
C (10%≤percent of modification <50%)	C (10%≤percent of modification <50%)	> 6.30	–	–	C=CC(=O)N1C[C@H](C)N(c2nc(OC[C@@]34CCCN3C[C@H](OC)C4)nc3c(F)c(-c4ccc(F)c5sc(N)nc45)c(C(F)(F)F)cc23)C[C@H]1C (atropisomer, axis not shown) [Compound 289]
D (percent of modification <10%)	A (percent of modification ≥70%)	> 6.30	–	–	C=CC(=O)N1CC[C@@H](N(C)c2nc(OC[C@@H]3C[C@@H](F)CN3C)nc3c(F)c(-c4ccc(F)c5sc(N)nc45)c(C(F)(F)F)cc23)C1 (atropisomer, axis not shown) [Compound 231]
